Results: patent US20230406901A1 (JHM BIOPHARMACEUTICAL HANGZHOU, published 2023)

Chains of the proteins cited; added tags and fusions are not shown. Residues count along the entry.
UniProt P55899, 24-297 limits assumed, chain 1 of 2: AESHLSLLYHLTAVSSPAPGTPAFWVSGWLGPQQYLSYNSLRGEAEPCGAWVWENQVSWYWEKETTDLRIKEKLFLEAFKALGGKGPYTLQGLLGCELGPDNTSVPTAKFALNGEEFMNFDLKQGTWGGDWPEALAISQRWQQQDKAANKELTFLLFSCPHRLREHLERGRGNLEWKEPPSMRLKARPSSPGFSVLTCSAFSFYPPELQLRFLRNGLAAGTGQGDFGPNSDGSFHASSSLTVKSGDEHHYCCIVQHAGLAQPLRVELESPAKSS

Target: T1, human FcRn (human, UniProt P55899, in part; P61769, in part)
T1 construct: also called Fc receptor (FcRn)
Test: SPR, CM5 chip, ligand coupled to chip, FcRn as analyte 46.875-6000 nM, pH 6.0, equilibrium fit

B1: natural human IgG4 Fc (other, UniProt P01861-1 99-327, looked up)
chain: ESKYGPPCPSCPAPEFLGGPSVFLFPPKPKDTLMISRTPEVTCVVVDVSQEDPEVQFNWYVDGVEVHNAKTKPREEQFNSTYRVVSVLTVLHQDWLNGKEYKCKVSNKGLPSSIEKTISKAKGQPREPQVYTLPPSQEEMTKNQVSLTCLVKGFYPSDIAVEWESNGQPENNYKTTPPVLDSDGSFFLYSRLTVDKSRWQEGNVFSCSVMHEALHNHYTQKSLSLSLGK
notes: domain: Fc
Kd: 2560 nM
